Patent US20050079180A1, “Manipulatin of oocyte maturation and male germ cell survival” (priority 2003, published 2005)

Columns and labels:
INSL3 message = experiment: Gonadotropin deprivation model: testis INSL3 mRNA (Northern blot); type: in vivo, rat; settings: FIG. 4B
Procedure: Total RNA from rat testes were extracted using the RNeasy purification kits (Qiagen Inc. Chatsworth, Calif.) before Northern blotting. The rat ortholog for LGR8 was identified in the GenBank (accession number AC098990) and this sequence was used in reverse transcription-PCR to yield a LGR8 probe of 230 bp for Northern blotting and in situ analyses. For in situ hybridization studies, testes form 40 days old Sprague-Dawley rat testes were fixed at 4° C. for 6 h in 4% paraformaldehyde in PBS, followed by immersion in 0.5 M sucrose in PBS overnight. Cryostat sections (7 μm thick) were mounted on microscope slides coated with poly-L-lysine (Sigma Chemical Co., St. Louis, Mo.) and stored at −80C. until analyzed. The hybridization procedure was essentially the same as described by Leo et al. (1999) Endocrinology 140:5469-5477. In brief, sections were pretreated serially with 0.2 M HCl, 2×SSC, pronase E (0.125 mg/ml), 4% paraformaldehyde, acetic anhydride in triethanolamine and dehydrated in ascending grades of ethanol. […]
Male Sprague-Dawley rats at 28 days of age were treated subcutaneously with GnRH antagonist (250 μg/kg/day) to suppress pituitary gonadotropin secretion. […] Animals were killed 5 days after initial treatment and organ weight determined. […]

INSL3 transcript = experiment: Ovarian INSL3 transcript levels (RT-PCR) after hCG in PMSG-primed immature rats; type: in vivo, rat; settings: ovulatory dose of hCG, immature rats primed with PMSG; FIG. 3A
[1] = tested on: oocytes of preovulatory follicles; experiment: In vivo oocyte maturation after intrabursal injection in PMSG-primed rats; design: species or system rat; settings: 8 h after intrabursal injection, FIG. 3C
Procedure: To study the effect of INSL3 on oocyte maturation in vivo, intrabursal injection was performed (Vaknin et al. PMID: 11133687). Immature PMSG-treated rats were lightly anesthetized by ether, and one of the ovaries was exteriorized through a small lumbosacral incision. Rat INSL3, dissolved in 100 μl of PBS, was injected through a 30-gauge needle threaded into the ovarian bursa via the adjoining fat pad. After injection, the ovary was replaced into the abdominal cavity, and skin was clipped. Eight hours later, CEOs were collected by puncturing the largest ovarian follicles to examine the occurrence of oocyte GVBD.

preovulatory follicles = experiment: Oocyte maturation (GVBD) in cultured intact preovulatory follicles; type: cell-based, rat; settings: FIG. 1F
Procedure: Briefly, female rats at 26 d of age were injected with 15 IU pregnant mare serum gonadotropin (PMSG). After 48-50 h, ovaries were dissected in Leivovitz's L-15 medium (Invitrogen Corp., Carlsbad, Calif.) supplemented with 5% fetal bovine serum and 100 μg/ml of penicillin and streptomycin. The CEOs were collected by puncturing the largest ovarian follicles in the L15 medium containing 0.25 mM of MIX within 20 min, washed twice in L15 medium without MIX and transfer to test medium. The CEO were cultured with or without different doses of rat INSL3 in L15 medium without both FBS and IBMX. For controls, the CEOs were cultured in L15 medium with IBMX. At the end of culture, the occurrence of germinal vesicle breakdown (GVBD) in oocyte was examined after removing cumulus cells surrounding CEO by a small-bore pipette under Hoffman modulation contrast microscopy (Nikon Inc., Tokyo, Japan). […] The vials were flushed at the start of the culture with O2/N2 (1/1) and cultured at 37C with gently shaking. After culture, individual CEO was dissected from each follicle to examine the occurrence of GVBD. For cAMP determination, 20 to 30 denuded oocytes were cultured with or without rat INSL3 (10 nM) in L15 medium containing 10 μM of cilostamide with or without 50 μM of forskolin. […]

[2] = tested on: seminiferous tubular cells; experiment: cAMP production by seminiferous tubular cells; type: cell-based, rat; settings: agent alone; FIG. 2D
Excerpt: FIGS. 2A-2D. Expression of LGR8 in male germ cells and INSL3 activation of the inhibitory G protein in seminiferous tubules. A) Northern blot analyses of LGR8 expression in testes of developing rats. B) In situ hybridization localization of LGR8 transcripts in the testis. The antisense LGR8 or INSL3 probe was used for the analysis of testes from six-week-old rats. Hybridization signals for LGR8 and INSL3 were present in seminiferous tubules and interstitial cells, respectively. C) Direct binding of biotinylated INSL3 to different testicular compartments. T: total binding; N: nonspecific binding; S: specific binding. LGR8: 293T cells expressing recombinant LGR8. Control: 293T cells not transfected with the LGR8 plasmid. […]
Seminiferous tubular cells were isolated by the method of Nagao (1989) In Vitro Cell Dev Biol 25:1088-1098, with modifications. […] After washing the cells three times, radioactivity in the pellets was determined.
To express recombinant LGR8, human 293T cells derived from embryonic kidney fibroblasts were maintained in Dulbecco's modified Eagle's medium/Ham's F-12 (DMEM/F12) supplemented with 10% FBS, 100 μg/ml penicillin, 100 μg/ml streptomycin, and 2 mM L-glutamine. […] Total cAMP in each well was measured in triplicate with primary cultured cells by a specific radioimmunoassay as previously described by Davoren and Hsuch (1985) Biol Reprod 33:37-52. […]

hCG: an agonist of LH; from A.P.L, Ayerst Laboratories
testis INSL3 message levels (INSL3 message): increased INSL3 expression
ovarian INSL3 transcript levels (INSL3 transcript): increased at 1.5 h after treatment
oocyte maturation (germinal vesicle breakdown in preovulatory follicles) [1]: induced oocyte maturation

LH: luteinizing hormone secreted by the pituitary
oocyte maturation (preovulatory follicles): induced oocyte maturation in a dose-dependent manner

FSH: human follicle stimulating hormone from Organon
cAMP production [2]: stimulated cAMP production by Sertoli cells
